Results on 25 compounds are retold here after PubChem BioAssay AID493008 (The Scripps Research Institute Molecular Screening Center, 2010).

The structures appear in SMILES notation. The list shows a part of the results, in another mix than the full data. Some tests of the compounds listed are not included; inactive here does not mean inactive elsewhere. Activity calls are given as the source filed them.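 Rule for the calls: active = activation above the mean over all tested compounds plus 3 SD (cut at about 30% in these data); inactive = the rest.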

The target in the test is Troponin I, cardiac muscle (Homo sapiens) + Troponin T, cardiac muscle (Homo sapiens) + Troponin C, slow skeletal and cardiac muscles (Homo sapiens) (UniProt P19429+P45379+P63316). Briefly: cardiac RTF calcium sensitivity activators, primary screen, biochemical, IANBD-TnC fluorescence, EC20 calcium (AID 493008).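 Note: rise in fluorescence read as greater calcium sensitivity of cardiac thin filaments.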 The conditions noted are these: IANBD-labeled TnC RTF fluorescence at EC20 calcium; at 7.2 µM; stronger effect = higher value; 0% EC20 calcium, 100% full calcium.
`CN(C)C1(CNC(=O)c2ccc(Br)cc2)CCCCC1`: the activation is inactive: -3.7%.
Under `COc1cc(C(=O)NCC2(N(C)C)CCCCC2)c([N+](=O)[O-])cc1OC` stands inactive: -4.41%; under `COc1ccc(Cl)cc1C(=O)NCC1(N(C)C)CCCCC1`, inactive: -2.23%.
Consider `COc1cccc(C(=O)NCC2(N3CCCCC3)CCCCC2)c1`, for which the activation was inactive: -5%.
Under `O=C(NCC1(N2CCCCC2)CCCCC1)c1cccc(Cl)c1` stands inactive: -2.85%; under `O=C(OC1CN2CCC1CC2)C(CO)(c1ccccc1)c1ccccc1` (stereo not given), inactive: -4.11%.
Then `COc1ccc(Br)c(C(=O)NCC2(N3CCCCC3)CCCCC2)c1`, with inactive: 3.87%; and `CN(C)c1cccc(C(=O)NCC2(N(C)C)CCCCC2)c1`, with inactive: -2.33%; and `O=C(OCCN1CCCC1)C(O)(c1ccccc1)c1ccccc1`, with inactive: 4.23%.
Under `CC(C)Oc1ccc(C(=O)NCC2(N(C)C)CCCCC2)cc1` stands inactive: 3.95%; under `O=C(NCC1(N2CCCCC2)CCCCC1)c1cc([N+](=O)[O-])ccc1Cl`, inactive: 5.07%.
With `CN1[C@@H]2CC[C@H]1CC(OC(=O)C(O)(c1ccccc1)c1ccccc1)C2` (stereo not given in full), the activation was inactive: 6.09%.
Then `CC(C)N1C(=O)CC2(CCN(CCOC(=O)C(O)(c3ccccc3)c3ccccc3)CC2)C1=O`, with inactive: -0.69%; and `COc1cc(SC)ccc1C(=O)NCC1(N(C)C)CCCCC1`, with inactive: 0.72%; and `CCN(CC)CC(C)C(C)OC(=O)C(O)(c1ccccc1)c1ccccc1` (stereo not given), with inactive: -1.24%.
In the case of `Cc1ccc(C(=O)NCC2(N3CCCCC3)CCCCC2)cc1`, the activation was inactive: -4.53%.
Then `CN(C)C1CCCC1OC(=O)C(O)(c1ccccc1)c1ccccc1` (stereo not given), with inactive: 3.8%; and `CN(C)c1ccc(C(=O)NCC2(N(C)C)CCCCC2)cc1`, with inactive: -8.42%; and `Cc1ccccc1C(=O)NCC1(N2CCCCC2)CCCCC1`, with inactive: -3.87%.
Then `O=C(NCC1(N2CCCCC2)CCCCC1)c1cc(F)c(F)cc1Cl`, with inactive: -1.01%; and `C=CCN1CCN(CCOC(=O)C(O)(c2ccccc2)c2ccccc2)CC1`, with inactive: 6.53%; and `O=C(NCC1(N2CCCCC2)CCCCC1)c1cccc(Br)c1`, with inactive: -7.28%.
Under `Cc1cc(C(=O)NCC2(N3CCCCC3)CCCCC2)ccc1[N+](=O)[O-]` stands inactive: -8.04%.
Turning to `CCN1CCCC(OC(=O)C2(O)c3ccccc3C=Cc3ccccc32)C1` (stereo not given), the activation was inactive: -8.94%.
Then `COc1ccc(C(=O)NCC2(N(C)C)CCCCC2)cc1`, with inactive: 9.38%.
